The source of these data is publication PMC8343220, “The selectivity of α‐adrenoceptor agonists for the human α1A, α1B, and α1D‐adrenoceptors” (Pharmacology Research & Perspectives, 2021).

What all share (type): cell-based
Assay [1] deals with T1, human α1A‐adrenoceptor (Homo sapiens, UniProt P35348).
T1 construct: expressed in transfected cells; host or cells: CHO-K1
T1 sequence (P35348 1-466): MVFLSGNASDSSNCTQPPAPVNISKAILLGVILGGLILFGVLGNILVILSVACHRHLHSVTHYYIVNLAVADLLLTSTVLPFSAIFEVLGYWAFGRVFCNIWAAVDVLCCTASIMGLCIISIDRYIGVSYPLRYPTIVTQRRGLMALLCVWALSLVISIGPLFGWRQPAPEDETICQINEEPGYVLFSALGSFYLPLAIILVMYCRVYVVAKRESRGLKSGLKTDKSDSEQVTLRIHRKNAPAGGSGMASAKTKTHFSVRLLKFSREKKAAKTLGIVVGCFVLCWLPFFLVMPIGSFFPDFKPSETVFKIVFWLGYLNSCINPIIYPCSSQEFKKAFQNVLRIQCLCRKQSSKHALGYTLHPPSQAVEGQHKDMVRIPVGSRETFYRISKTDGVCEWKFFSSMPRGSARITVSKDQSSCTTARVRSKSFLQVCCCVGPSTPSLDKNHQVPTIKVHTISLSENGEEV
Put plainly: Intracellular free calcium mobilization, CHO‐α1A cells. A general note: Calcium assays in cells follow changes in intracellular calcium, usually with a dye or a luminescent sensor.

Assay [2] has as its target T1, human α1A‐adrenoceptor. Kind of assay: ERK1/2‐phosphorylation (Surefire Alphascreen), CHO‐α1A cells.
The target in assay [3] is T1, human α1A‐adrenoceptor. Put plainly: ^3H‐cAMP accumulation, CHO‐α1A cells. The conditions noted are these: 5 h. Background: Cyclic AMP is a second messenger, typically raised through Gs and lowered through Gi signalling.
Assay [4] has as its target T1, human α1A‐adrenoceptor. Put plainly: ^3H‐cAMP accumulation in the presence of 10 μM forskolin, CHO‐α1A cells.

Take Bromocryptine: the “Intracellular calcium release Log EC50” value at human α1A‐adrenoceptor [1] is given as −7.31 ± 0.07. At human α1A‐adrenoceptor [2], the “ERK1/2‐phosphorylation Log EC50” value is reported as −7.26 ± 0.16. The “cAMP accumulation Log EC50” value at human α1A‐adrenoceptor [3] is listed as “No response”. The “cAMP accumulation (in presence of forskolin) Log EC50” value on human α1A‐adrenoceptor [4] is given as “No response”.
